The source of these data is patent publication US20090062386A1, “Simulants of Toxants for Training and Testing” (published 2009).

Structures are written as SMILES.

Series [1] is described as follows: Accelerated shelf-life testing, TA and EL by HPLC. The note with it: aged simulant samples, data not shown.
Series [2] is described as follows: Density of simulants and toxants. As to conditions: simulants and EL, Table IV.
Series [3] is described as follows: Vapor pressure by laboratory analysis.
Series [4] can be described thus: Kinematic viscosity.
Series [5] is described as follows: Surface tension. The note with it: simulants and EL, Table IV.
For series [6] the following is noted: relative to air.
A short description of series [7]: Volatility (vapor concentration). The note with it: simulants and EL, Table IV.

Turning to `CCOC(=O)C(C)O` (stereo not drawn), the “chemical stability of EL” value in series [1] is listed as “stable”. The Density in series [2] was 1.03 g/mL. Also, in series [3] (@ 25° C., simulants and EL, Table IV), the “Vapor Pressure” value was 3.7 Torr. Further, the “vapor pressure Pv” value in series [3] (@ 30° C.) is recorded as 5 Torr. Moreover, in series [4] (at 20° C.), the viscosity is listed as 2.63 cSt. The “Kinematic Viscosity” value in series [4] (simulants and EL, Table IV) was 2.63 cSt. Also, the “Surface Tension” value in series [5] worked out at 30.0 dynes/cm. The compound further showed a vapor density in series [6] of 4.07. Further, the Volatility in series [7] came to 17130 mg/m^3.

For the compound `CC(=O)OCC(COC(C)=O)OC(C)=O`, the “vapor pressure Pv” value in series [3] (@ 25° C.) is listed as 0.0025 Torr. In addition, the viscosity in series [4] (at 25° C.) was 14.7 cSt. The same compound registered a vapor density in series [6] of 7.52.
